The results in this text go back to patent US11306071B2, “Heterocyclic compounds as adenosine antagonists” (Nuvation Bio Inc., priority 2019, dated 2022).

By UniProt entry, the sequences of proteins in these tests, tags left out.
UniProt P30542, whole entry: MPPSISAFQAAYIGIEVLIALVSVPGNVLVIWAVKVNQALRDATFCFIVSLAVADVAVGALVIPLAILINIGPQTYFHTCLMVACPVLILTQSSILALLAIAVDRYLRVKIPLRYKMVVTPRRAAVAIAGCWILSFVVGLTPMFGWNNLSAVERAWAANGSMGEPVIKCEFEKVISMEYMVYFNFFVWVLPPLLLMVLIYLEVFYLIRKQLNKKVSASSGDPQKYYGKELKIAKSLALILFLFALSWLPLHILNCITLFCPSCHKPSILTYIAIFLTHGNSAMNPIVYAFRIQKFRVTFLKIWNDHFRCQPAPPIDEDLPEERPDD

The target of assay [1] is adenosine A2a (human) membrane (Homo sapiens (Human), UniProt P29274). The assay is described as follows: A2A adenosine receptor radioligand binding assay ([3H] CGS-21680). The following applies: read-out: A2a binding IC50; radioligand [3H] CGS-21680 6 nM. The protocol:
A second A2A adenosine receptor radioligand binding assay protocol was used. The protocol used adenosine A2a (human) membrane (PerkinElmer RBHA2AM400UA) at a concentration of 5 μg/well/100 μl and the radioligand [3H] CGS-21680 (Cat No. PerkinElmer-NET1021250UC) at a final concentration of 6 nM. Testing compounds were diluted with DMSO to make 8-point 4-fold serial dilution, starting at 0.2 mM. CGS-15943 was the reference compound. 1 μl of compounds/high control/low control was transferred to the assay plate according to a plate map, followed by 100 μl of membrane stocks and 100 μl of radioligand, in assay buffer (50 mM Tris-HCl, 10 mM MgCl2, 1 mM EDTA, pH 7.4). The plate was sealed and incubated at RT for 2 hours. Unifilter-96 GF/C filter plates (Perkin Elmer Cat #6005174) were soaked with 50 μl of 0.3% PEI per well for at least 0.5 hour at room temperature. […] After drying, the bottom of the filter plate wells was sealed, 50 μl of Perkin Elmer Microscint 20 cocktail was added, and the top of the filter plate was sealed. ^3H trapped on the filter was counted using Perkin Elmer MicroBeta2 Reader. The data were analyzed with GraphPad Prism 5 to obtain binding IC50 values. The “Inhibition [% Control]” was calculated using the equation: % Inh=(1-Background subtracted Assay value/Background subtracted HC value)*100, where HC is high control.

For assay [2], the target named is adenosine A1 (human) membrane (Homo sapiens (Human), UniProt P30542). Put plainly: A1 adenosine receptor radioligand binding assay ([3H] DPCPX). To be noted: 200 nM compound; radioligand [3H] DPCPX 1 nM. As to the method: A second A1 adenosine receptor radioligand binding assay protocol was used. The protocol used adenosine A1 (human) membrane (PerkinElmer ES-010-M400UA) at a concentration of 2.5 μg/well/100 μl and the radioligand [3H] DPCPX (Cat No. PerkinElmer-NET974250UC) at a final concentration of 1 nM. Testing compounds were tested at a final concentration of 200 nM. CGS-15943, the reference compound, was tested in an 8-point 4-fold serial dilution, starting at a top concentration of 1 μM. 1 μl of compounds/high control/low control was transferred to the assay plate according to a plate map, followed by 100 μl of membrane stocks and 100 μl of radioligand, in assay buffer (25 mM HEPES, 5 mM MgCl2, 1 mM CaCl2, 100 mM NaCl, pH 7.4). The plate was sealed and incubated at RT for 1 hour. […] After drying, the bottom of the filter plate wells was sealed, 50 μl of Perkin Elmer Microscint 20 cocktail was added, and the top of the filter plate was sealed. ^3H trapped on the filter was counted using Perkin Elmer MicroBeta2 Reader. The data were analyzed with GraphPad Prism 5 to obtain binding IC50 values for the reference compound. The “Inhibition [% Control]” was calculated using the equation: % Inh=(1-Background subtracted Assay value/Background subtracted HC value)*100, where HC is high control.

Each structure is given as a SMILES string.

In the case of `C[C@@H](NC(=O)c1nc(-c2ccc3ncccc3c2)c(-c2ccccc2)nc1N)c1cnccn1`, the IC50 in assay [1] came out at 2 nM. The “A1 binding inhibition at 200 nM (%)” value in assay [2] was 92%.

For orientation: IC50 means the concentration needed to halve the response being measured.
